Experimental findings from US20250188078A1, “SMALL MOLECULE INHIBITORS OF THE CRL4 UBIQUITIN LIGASE” (Cornell University, priority 2022, published 2025) are described below.

Sequences of proteins named here, by UniProt entry; tags and fusion partners are left off. Residues count along the entry.
UniProt Q16531, 403-706 limits assumed: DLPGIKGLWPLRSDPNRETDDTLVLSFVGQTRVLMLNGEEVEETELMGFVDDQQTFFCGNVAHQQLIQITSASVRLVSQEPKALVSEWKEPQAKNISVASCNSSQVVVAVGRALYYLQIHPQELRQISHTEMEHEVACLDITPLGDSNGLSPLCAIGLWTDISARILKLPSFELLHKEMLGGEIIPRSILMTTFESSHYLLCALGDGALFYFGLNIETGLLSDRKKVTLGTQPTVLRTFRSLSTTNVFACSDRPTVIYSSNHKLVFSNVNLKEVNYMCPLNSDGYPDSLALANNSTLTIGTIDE

The subject of assay [1] is CUL4A^low T47D breast cancer cells. In words: Cell killing in CUL4-low T47D cells (CellTiter Glo). The note with it: read-out: EC50 CUL4-Low Cells (cell killing), 8 days treatment. The procedure:
EC50 indicates compound concentration can cause 50% cell killing in CUL4° ^w T47D cells (see Table 1, column 7). CUL4A^low T47D breast cancer cells were seeded in 96 well plate. […] Change fresh medium and compounds every 48 hours. After 8 days treatment, cell viability was examined by using CellTiter Glo kit (Promega #7570) following the manufacturer's guidelines (https://www.promega.com/-/media/files/resources/protocols/technical-bulletins/0/celltiter-glo-luminescent-cell-viability-assay-protocol.pdf?rev=0d95c232094b41daa06d0c110d1d916f&sc_lang=en, hereby incorporated by reference in its entirety for all purposes). EC50 concentration was calculated by Prism 8 XY analysis nonlinear regression (curve fit-Log(inhibitor) vs response). EC50 indicates cell killing potential in CUL4 low T47D cell line and the EC50 difference between CUL4^high and CUL4^low cells indicates the small molecule cause specific cell killing.
Measurements were performed via a Cell Titer Glo assay that measured selective killing of CUL4^high (MDA-MB-468), CUL4^low (T47D), and MCF7 cells. CUL4A^high MDA-MB-468, CUL4^low (T47D), and MCF7 breast cancer cells were seeded in 96 well plates separately. […] Replace with fresh medium and compounds every 48 hours. […] Then record luminescence. EC50 concentration was calculated by Prism 8 XY analysis nonlinear regression (curve fit-Log(inhibitor) vs response).
For orientation: Cellular ATP, detected with luciferase, serves as a proxy for viable cell number.

Assay [2] concerns CUL1-dependent IκB-α degradation in Hela cells. In words: TNFα-induced CUL1/SCF-dependent IκBα degradation assay (Western blot). Conditions: FIG. 6D. The procedure:
FIG. 6D Western blotting of TNFα-induced […] IκBα degradation assay. Hela cells were seeded in 6-well plates. After 24 hours incubation, DMSO or indicated concentration of compounds were added with serum-free medium for 2 hours incubation. TNFα was added and cells were harvested, lysed in buffer containing 150 mM NaCl, 1% SDS, 10 mM Tris-HCl (pH 6.8), 1× complete protease inhibitor cocktail and 10 U Benzo nuclease. Equal amounts of proteins were resolved on 9% SDS-PAGE gel and IκBα levels were detected using anti-IκBα rabbit polyclonal antibody (Proteintech, 10268-1-AP). α-tubulin (Proteintech, #66031-1-Ig) was used as an internal loading control. TNFα-induced IκBα degradation was mediated by CUL1/SCF^βTrCP E3 ligase.

Assay [3] has as its target CUL4A-DDB1-BPB interaction (Homo sapiens (Human), UniProt Q16531). In words: AlphaLISA in vitro binding assay, CUL4A and DDB1-BPB binding. The note with it: read-out: AlphaLisa IC50; inhibition of CUL4A and DDB1-BPB binding. From the text:
AlphaLISA IC50 (see Table 1, column 4) means the half maximal inhibitory concentration of compound that inhibits CUL4A and DDB1-BPB binding. Our lab established and optimized 384 well-based AlphaLISA in vitro binding assay for testing small molecule inhibitory activity. Small molecule libraries were screened for compounds that disrupt CUL4A-DDB1-BPB interaction using AlphaScreen detection beads (PerkinElmer, #AL112C and #6765300) following the manufacturer's protocol (https://www.perkinelmer.com/PDFs/downloads/GDE-Alphatech.pdf, hereby incorporated by reference in its entirety for all purposes). The 384-well assay plates (Greiner Bio-one, #781075) were read in Synergy Neo2 Hybrid Multi-Mode Reader (BioTek). The IC50 was calculated by Prism 8 XY analysis nonlinear regression (curve fit-Log(inhibitor) vs response).

Assay [4] addresses DDB1-BPB (Homo sapiens (Human), UniProt Q16531). In words: Surface Plasmon Resonance (SPR) binding to DDB1-BPB. The note with it: read-out: Kd (SPR); DDB1-BPB immobilized. The text has this:
Kd represents dissociation constant, which measures the affinity of small molecule binding to the scaffold DDB1-BPB by Surface Plasmon Resonance (SPR) (https://www.bio-rad.com/webroot/web/pdf/lsr/literature/Bulletin_6414.pdf, hereby incorporated by reference in its entirety) (see Table 1, column 8). To assess the interaction between DDB1-BPB and compounds, a multi-parametric SPR instrument (BioRad ProteON XPR360) was used. DDB1-BPB was immobilized onto the GLH sensor surface in a variety of ways as follows: flow channels were activated in parallel with 1/20 diluted EDC/SNHS. DDB1-BPB was diluted to 0.1 mg/mL in sodium acetate pH 4.5 and directly coupled onto channel for 4 min. Excess reactive esters were blocked with a 5-min injection of 1 M ethanolamine. Mean immobilization levels were 17,000 RU with <2% variation along a strip. One channel was left unmodified to provide an additional reference surface. Next, the binding kinetics of compounds on surfaces was determined in a single injection using a “one-shot” kinetic mode. Typically, compound was prepared as a twofold serial dilution (0, 3.125, 6.25, 12.5, 25, 50 μM) and injected for 60 s at […]. Dissociation was monitored for 800 s. […] All resulting sensor grams were collected and analyzed using the ProteOn manager software.

The subject of assay [5] is CUL4A^high MDA-MB-468 breast cancer cells. In words: Cell killing in CUL4-high MDA-MB-468 cells (CellTiter Glo). The note with it: read-out: EC50 CUL4-High Cells (cell killing), 8 days treatment. As for the experimental part:
EC50 refers to concentration of compound that induces 50% killing of CUL4A^high MDA-MB-468 cells (see Table 1, column 6). CUL4A^high MDA-MB-468 breast cancer cells were seeded in 96 well plates. After 24 hours, cells were treated with DMSO or compounds. Change fresh medium and compounds. After 8 days treatment, cell viability was examined by using CellTiter Glo kit (Promega #7570) following the manufacturer's guidelines (https://www.promega.com/-/media/files/resources/protocols/technicalbulletins/0/celltiter-glo-luminescent-cell-viability-assay protocol.pdf?rev=0d95c232094b41daa06d0c110d1d916f&sc_lang=en, hereby incorporated by reference in its entirety for all purposes). EC50 concentration was calculated by Prism 8 XY analysis nonlinear regression (curve fit-Log(inhibitor) vs response). Lower EC50 indicates high cell killing potential in CUL4^high MDA-MB-468 cells.
Measurements were performed via a Cell Titer Glo assay that measured selective killing of CUL4^high (MDA-MB-468), CUL4^low (T47D), and MCF7 cells. CUL4A^high MDA-MB-468, CUL4^low (T47D), and MCF7 breast cancer cells were seeded in 96 well plates separately. Cells were treated with DMSO, or from 0 to 20 μM compound respectively. Replace with fresh medium and compounds every 48 hours. […] Then record luminescence. EC50 concentration was calculated by Prism 8 XY analysis nonlinear regression (curve fit-Log(inhibitor) vs response).

As to `CN(c1ccc(-c2nc(C(=O)O)cc3c2[nH]c2ccccc23)cc1)S(=O)(=O)c1ccccc1`, the results for the EC50 in assay [1] and in assay [5] were more than 100 µM and 46.5 µM, respectively. Besides, the “Inhibition of TNF-α induced CUL1-dependent IκB-α degradation” value in assay [2] was “no inhibition”. In addition, the IC50 in assay [3] amounted to 0.84 µM. In assay [4], the Kd stood at 3.44 µM.

One may read the EC50 as the concentration that produces a half-maximal response. What is called IC50 is the midpoint of a concentration-inhibition curve. The Kd is a measure of binding affinity in units of concentration.
